System: STATS phosphorylation in lymphocytes
Test: flow cytometry of STATS phosphorylation in lymphocytes at time points after administration in mice
Type: in vivo
Conditions: after administration to mice
Description: RSLAIL-2 is generally referred to as long-acting. For the purposes herein, the long acting nature of an IL-2Rβ biased agonist is typically determined using flow cytometry to measure STATS phosphorylation in lymphocytes at various time points after administration of the agonist to be evaluated in mice. As a reference, the signal is lost by around 24 hours with IL-2 but is sustained for a period greater than that for a long-acting IL-2Rβ-biased agonist.

Substance	duration of STATS phosphorylation signal	time by which STATS phosphorylation signal is lost
(2,7-(bis-methoxyPEG-carboxyamide)(9H-fluorene-9-yl)methyl N-carbamate)4-6interleukin-2 [RSLAIL-2]	sustained over several days	–
IL-2: IL-2 cytokine used as standard/reference for binding affinity and signal duration [reference compound]	–	around 24 hours

From patent US20210355223A1, “Combinations for Treating Cancer” (Pfizer Inc., priority 2018, published 2021)
